{
  "sequences": {"note": "Sequences of proteins named here, by UniProt entry; tags and fusion partners are left off.", "UniProt P08908, whole entry": "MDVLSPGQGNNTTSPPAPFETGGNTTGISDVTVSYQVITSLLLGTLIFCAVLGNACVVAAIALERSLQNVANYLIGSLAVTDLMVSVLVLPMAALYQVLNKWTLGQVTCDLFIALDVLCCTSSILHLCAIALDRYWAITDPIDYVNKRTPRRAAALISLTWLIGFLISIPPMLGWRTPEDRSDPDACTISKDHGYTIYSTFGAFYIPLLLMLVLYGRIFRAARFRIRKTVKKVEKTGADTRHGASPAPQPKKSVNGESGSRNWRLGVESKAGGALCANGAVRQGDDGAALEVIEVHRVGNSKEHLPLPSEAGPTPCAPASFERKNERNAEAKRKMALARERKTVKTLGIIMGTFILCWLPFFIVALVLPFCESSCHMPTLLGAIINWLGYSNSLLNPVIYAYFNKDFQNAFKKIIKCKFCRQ"},
  "source": "PubChem BioAssay AID567",
  "about": "(The Scripps Research Institute Molecular Screening Center, 2006)",
  "note": "The list shows a part of the results, in another mix than the full data. Calls of active or inactive are those of the source.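 The calls were made as follows: active = activation above the screen-wide mean activation plus 3 SD (cut at about 19% in these data); inactive = the rest.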",
  "data": [
    {"molecular_target": "5-hydroxytryptamine receptor 1A (Homo sapiens) (UniProt P08908)", "assay": "agonism at serotonin HTR1A receptor – cell-based, CHO, Ga15 NFAT-bla reporter, primary screen (AID 567);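 also: 0% = DMSO wells and 100% = 5-CT at EC100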", "conditions": "CHO 5-HT1a Ga15 NFAT-bla reporter, FRET ratio; at 10 µM; stronger effect = higher value; 0% basal, 100% maximal reference agonist", "values": [
      {"smiles": "CCC(CO)(C(=O)OC1CN2CCC1CC2)c1ccccc1", "note": "(configuration not stated)", "activation": "inactive: -3.88%"},
      {"smiles": "CCOc1ncccc1C(=O)NCC1(N2CCOCC2)CCCCC1", "activation": "inactive: -0.7%"},
      {"smiles": "Fc1ccccc1NC1CCN(Cc2ccccc2)CC1", "activation": "inactive: 0.43%"},
      {"smiles": "N/C(=N\\O)c1c(N)no[n+]1[O-]", "activation": "inactive: 1.1%"},
      {"smiles": "N#CC1(Nc2ccccc2)CCN(CCc2ccccc2)CC1", "activation": "inactive: -0.96%"},
      {"smiles": "COc1ccc(NC2CCN(CCc3ccccc3)CC2)c(OC)c1", "activation": "inactive: -0.71%"},
      {"smiles": "O=C(OC1CN2CCC1CC2)C1c2ccccc2Oc2ccccc21", "note": "(configuration not stated)", "activation": "inactive: -1.68%"}
    ]}
  ]
}
